Source: US20100119506A1 (published 2010)

Target: T1, Human PAR-2 peptide (SEQ ID NO:1, Residues 33-54) (human)
T1 peptide: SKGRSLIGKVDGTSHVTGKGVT
Assay: Kinexa, peptide in solution
Experimental: Binding to peptide in solution was determined by Kinexa technology.

B1: Antibody Par-D (antibody, V domains shown)
VH: QVELVESGGGLVQPGGSLRLSCAASGFTFSNHAMHWVRQAPGKGLEWVSAISHPGKFTYYADSVKGRFTISRDNSKNTLYLQMNSLRAEDTAVYYCARHGDGMDYFDFWGQGTLVTVSS
VL: DIELTQPPSVSVAPGQTARISCSGDNIGTKYVYWYQQKPGQAPVLVIYDDNNRPSGIPERFSGSNSGNTATLTISGTQAEDEADYYCQSYDSQTMVFGGGTKLTVLG
notes: Codon-optimized version of Ab4996
B1 showed a Kd of 0.15 nM.
